This passage reports Ki results from patent US5516782A, “New meso-azacyclic aromatic acid amides and esters as novel serotonergic agents” (G. D. Searle & Co., priority 1995, dated 1996).

By UniProt entry, the sequences of proteins in these tests, tags left out. Residues count along the entry.
UniProt P35563, 24-483: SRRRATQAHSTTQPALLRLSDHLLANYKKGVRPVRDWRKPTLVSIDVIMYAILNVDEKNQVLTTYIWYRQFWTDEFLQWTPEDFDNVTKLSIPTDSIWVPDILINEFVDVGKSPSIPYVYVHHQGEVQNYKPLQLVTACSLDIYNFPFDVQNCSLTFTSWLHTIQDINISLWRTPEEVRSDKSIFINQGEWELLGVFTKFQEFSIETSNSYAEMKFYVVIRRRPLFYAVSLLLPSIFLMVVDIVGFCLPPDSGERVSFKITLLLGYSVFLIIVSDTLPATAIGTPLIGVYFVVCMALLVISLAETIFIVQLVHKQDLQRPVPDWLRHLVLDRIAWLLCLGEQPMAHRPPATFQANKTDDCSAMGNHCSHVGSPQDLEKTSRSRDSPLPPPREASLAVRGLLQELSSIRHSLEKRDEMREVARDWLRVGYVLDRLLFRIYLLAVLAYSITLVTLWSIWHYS

The structures appear in SMILES notation.

The test addresses T1, 5-HT3 receptor (Rattus norvegicus, UniProt P35563).
T1 construct: Brain cortices are obtained from male rats and a membrane fraction prepared by standard techniques; from tissue; host or cells: rat brain cortex membranes
Briefly: Serotonin (5-HT3) radioligand receptor binding assay ([3H]-GR65630, rat brain cortex membranes). As for the experimental part:
5-HT3 antagonism can be determined by the radioligand receptor binding assay as described herein and in the in vivo Bezold-Jarisch reflex procedure.
GR65630 binds to the 5-HT3 receptor. Brain cortices are obtained from male rats and a membrane fraction prepared by standard techniques. 0.04 mg of membrane prep is incubated with 0.2 nM [^3 H]-GR656630 for 60 minutes at 22° C. […] Membranes are filtered and washed 3 times and the filters are counted to determine [3H]-GR65630 specifically bound.*
Kilpatrick G. J., Jones B. J. and Tyers M. B. Identification and distribution of 5-HT3 receptors in rat brain using radioligand binding. Nature, 330: 746-748, 1987.

Turning to `NCCc1c[nH]c2ccc(O)cc12` [Example 5-HT, serotonin], the Ki (usually a dissociation constant, usually derived from enzyme kinetics or from competition with a known ligand) amounted to 0.39 nM.
